{"source": "patent US5972963A", "about": "“3-aryl-2-(1-substituted 4-piperidinyl)-1,1-dioxo-3H-benzo[D]isothiazoles and related compounds” (Hoechst Marion Roussel, Inc., priority 1997, dated 1999)", "origin": "cited, not measured here", "data": [{"test_system": "serotonin (5 HT) uptake", "settings": "literature; cited from earlier work", "values": [{"compound": "O=c1n(CCCN2CCN(c3cccc(Cl)c3)CC2)nc2ccccn12", "note": "[Trazodone]", "5 HT uptake inhibition": "fairly selective effects on 5 HT uptakes"}, {"compound": "CNCCC(Oc1ccc(C(F)(F)F)cc1)c1ccccc1", "note": "(stereo not drawn) [fluoxetine]", "5 HT uptake inhibition": "both a selective and potent 5 HT uptake inhibitor"}, {"compound": "C[C@@H]1O[C@@H](O[C@H]2C[C@@H](O)[C@]3(CO)[C@H]4[C@H](O)C[C@]5(C)[C@@H](C6=CC(=O)OC6)CC[C@]5(O)[C@@H]4CC[C@]3(O)C2)[C@H](O)[C@H](O)[C@H]1O", "note": "[ouabain]", "5 HT uptake inhibition": "inhibited"}]}]}
